G9a block – blocks human histone lysine methyltransferase G9a; Q96KQ7; G9a H3K9 monomethylation, AlphaScreen, 2 h; Potency, µM (top dose mostly 102 µM), for inactives: at the highest dose activity, negative = inhibition, usual class: inhibitors; 350,000 compounds, 8.8% hits; AID 504332; note: potency is the fitted concentration of half-maximal effect; % is set by controls: 0 for no effect and ±100 for the full control effect; nearly all actives have a fitted effect of over 75% in size
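Step 1: enzyme (final 20 nM) with compound, 15 min RT. Step 2: substrate peptide 500 nM and SAM 20 uM, 2 h RT. Step 3: anti-H3K9me1 antibody and AlphaScreen beads, 10 min, then plate read.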
Sfp inh – blocks B. subtilis Sfp PPTase activity; Q9F4F7; Biochemical Sfp PPTase activity, qHTS; Potency, µM, for the others: max response, negative = inhibition, most hits filed as inhibitors; actives 3.5% (n = 310,000); AID 1490; active = well fitted inhibition curve with a large enough effect; inconclusive = small, poorly fitted or top-dose-only effect, or another doubt; inactive = no such curve, though single readings can be large or run the other way;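 also: the enzyme is Sfp with the accession as filed and its product quenches rhodamine fluorescence; potency is read from the fitted curve at half-maximal effect; 0% = enzyme reaction without inhibitor and -100% = no enzyme wells; top concentration of the series not given in the record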
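With Hepes-Na pH 7.6 buffer containing 10 mM MgCl2, Sfp (15 nM) modified BHQ-2-YbbR (12.5 uM) using rhodamine-CoA (5 uM). Two reads 30 minutes apart at 525/598 nm yielded each well's rate.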
JMJD2E inh – blocks human JMJD2E demethylase activity; AID 2147; Potency, µM (titrated, usually from 57.1 µM), inactives show top-dose activity change, negative = inhibition, usual class: inhibitors; JMJD2E catalytic domain, FDH-coupled NADH fluorescence (FDH is formaldehyde dehydrogenase); 230,000 compounds, 1.6% hits; B2RXH2; active = well fitted inhibition curve with a large enough effect, not every such curve was filed as active; inconclusive = small, poorly fitted or top-dose-only effect, or another doubt; inactive = no such curve, though single readings can be large or run the other way;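 note: potency is the fitted concentration of half-maximal effect; 0% = wells with enzyme and -100% = buffer wells without enzyme; nearly all actives have a fitted effect of over 50% in size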
miR-21 reporter – raises the signal of a miR-21 reporter | HeLa miR-21 FLuc reporter, luciferase, 48 h | Potency, µM (doses to about 38.3 µM), without a hit: at the top dose reporter change, positive = more light | 340,000 tested, under 10 active | AID 2288; active = well fitted rising curve with a large enough effect; inconclusive = small, poorly fitted or top-dose-only effect; inactive = no such curve, though single readings can be large or run the other way;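 note: % of control where 0% means no effect; miR-21 action dims this reporter so a rising signal means less miR-21 action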
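Using DMEM plus 10% FBS, HeLa miR-21-FLuc cells are incubated with test compounds (final up to about 40uM) for 48 hours; firefly luciferase signal is then imaged following reagent-mediated lysis.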
Lamin A splicing – changes lamin A minigene splicing in HeLa cells; HeLa LMNA splicing GFP/RFP minigene ratio, 48 h; Potency, µM (series often up to 46.1 µM), without a hit: at the top dose ratio change, negative = inhibition, most hits filed as inhibitors; 200,000 compounds, 0.01% hits; AID 1487; active = well fitted inhibition curve with a large enough effect in the signal ratio, with a control signal flat, not every such curve was filed as active; inconclusive = small, poorly fitted or top-dose-only effect, or effect the other way, or a change in a side signal; the % refers to the signal ratio; note: potency is the fitted concentration of half-maximal effect; % is set by controls: 0 for no effect and ±100 for the full control effect
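Read-out is the ratio of GFP to DsRed2 object intensity, acquired by 488 nm laser-scanning cytometry on HeLa lamin A-EGFP minigene reporter cells. Compound incubation 48 hrs at 37 °C in Opti-MEM with 2% FBS; DMSO 0.5% final.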
ALDH1A1 inh – blocks purified human ALDH1A1 activity; P00352; Purified ALDH1A1, NADH fluorescence, propionaldehyde substrate; Potency, µM (top dose mostly 75.3 µM), for the others: at the top dose activity, negative = inhibition, hits mostly inhibitors; 220,000 compounds, 7.3% hits; AID 1030; active = well fitted inhibition curve with a large enough effect, not every such curve was filed as active; inconclusive = small, poorly fitted or top-dose-only effect, or another doubt; inactive = no such curve, though single readings can be large or run the other way;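 note: potency is the fitted concentration of half-maximal effect; plate controls were no enzyme wells and a reference inhibitor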
* hit, by the source's call; ? = inconclusive; nt = no result; [ ] = dose if it differs, or a comment. An excerpt weighted towards active compounds, which were near 13% of everything screened. Unless noted, calls come from the whole dose curve; as a rule, active = well fitted curve in the direction sought with a large enough effect; inconclusive = small, poorly fitted or top-dose-only effect, or another doubt; inactive = no such curve, though single readings can be large; an effect the other way counts as inactive or inconclusive.

Every second line gives: G9a block	Sfp inh	JMJD2E inh	miR-21 reporter	Lamin A splicing	ALDH1A1 inh
- CC(C)c1ccc(NC(=O)CCNS(=O)(=O)c2cccc3nonc23)cc1
  -11%[59 µM]	15%	-6%	-5%	-8%	25µM*
- Cc1ccc(NC(=O)CCNS(=O)(=O)c2cccc3nonc23)cc1
  -13%[59 µM]	16%	-3%	1%	-2%	?
- COc1ccccc1CNC(=O)CCNS(=O)(=O)c1cccc2nonc12
  19%	21%	nt	-1%	nt	nt
- CCc1ccc(NS(=O)(=O)c2cccc3nonc23)cc1
  45µM*	-7%	-1%	-2%	nt	-15%
- O=C(CCNS(=O)(=O)c1cccc2nonc12)NC1CCCCCC1
  -32%	16%	-2%	-1%	17%[46 µM]	25µM*
- COc1cccc(N2CCN(C(=O)C3CCCN(S(=O)(=O)c4ccc(Br)s4)C3)CC2)c1 (stereo not drawn)
  -36%[59 µM]	nt	nt	?	nt	nt
- Cc1cc(C(=O)O)ccc1-c1ccc(/C=C2\SC(=O)N(CC(=O)Nc3ccc4c(c3)OCO4)C2=O)o1
  -1%[0.501 µM]	50µM*	nt	0%	nt	nt
- Cc1ccc(NC(=O)CN2C(=O)S/C(=C\c3ccc(C(=O)O)cc3)C2=O)cc1
  2%	-7%	nt	1%	nt	nt
- Cc1ccc(NC(=O)CN2C(=O)S/C(=C/c3ccc(-c4cccc(C(=O)O)c4)o3)C2=O)cc1
  nt	-17%	-27%	-6%	?	4%
- C#CCN1C(=O)S/C(=C\c2ccc(-c3ccc(C(=O)O)cc3C)o2)C1=O
  ?	-30%	nt	-77%	nt	nt

Every second line gives: G9a block	Sfp inh	JMJD2E inh	miR-21 reporter	Lamin A splicing	ALDH1A1 inh
- CC(C)(C)OC(=O)CN1C(=O)S/C(=C\c2ccc(-c3cccc(C(=O)O)c3)o2)C1=O
  56µM*	7%	nt	-14%	nt	nt
- Cc1ccc(C(=O)O)cc1-c1ccc(/C=C2\SC(=O)N(CC(=O)Nc3ccccc3)C2=O)o1
  7.1µM*	18µM*	?	-1%	6%[1.84 µM]	?
- Cc1ccc(NC(=O)CN2C(=O)S/C(=C\c3ccc(-c4cccc(C(=O)O)c4C)o3)C2=O)cc1
  11µM*	?	?	1%	-6%	?
- Cc1ccccc1NC(=O)CN1C(=O)S/C(=C\c2ccc(-c3cc(C(=O)O)ccc3C)o2)C1=O
  5µM*	35µM*	1%	3%	-15%[46 µM]	28µM*
- Cc1cc(/C=C2\SC(=O)N(CC(=O)Nc3ccccc3F)C2=O)c(C)n1C
  -6%[59 µM]	-2%	-20%	3%	-21%[46 µM]	?
- CC(C)(C)N(CC#CCC(O)(c1ccccc1)c1ccccc1)CCO
  8.9µM*	40µM*	-2%	0%	nt	?
- C=CCNc1cnn(-c2ccc(C)cc2)c(=O)c1Sc1ccc(C)cc1
  -1%	2%	?	-1%	nt	10µM*
- CS(=O)(=O)N1CCN(c2ccccc2NC(=O)c2cc3ccccc3o2)CC1
  10%	7%	nt	13%	nt	nt
- CC(=O)c1ccc(NC(=O)NC2CC(=O)N(c3ccc4c(c3)OCCO4)C2)cc1 (stereo not drawn)
  4%	nt	nt	nt	nt	nt
- CC1CN(CCCOc2ccccc2[N+](=O)[O-])CC(C)O1 (stereo not drawn)
  27%[0.501 µM]	?	-20%	-10%	1%[0.0737 µM]	-2%

Exported with the structure last: five of the compounds above.
G9a block | Sfp inh | JMJD2E inh | miR-21 reporter | Lamin A splicing | ALDH1A1 inh | smiles
4% | nt | nt | nt | nt | nt | CC(=O)c1ccc(NC(=O)NC2CC(=O)N(c3ccc4c(c3)OCCO4)C2)cc1 (stereo not drawn)
10% | 7% | nt | 13% | nt | nt | CS(=O)(=O)N1CCN(c2ccccc2NC(=O)c2cc3ccccc3o2)CC1
8.9µM* | 40µM* | -2% | 0% | nt | ? | CC(C)(C)N(CC#CCC(O)(c1ccccc1)c1ccccc1)CCO
-1% | 2% | ? | -1% | nt | 10µM* | C=CCNc1cnn(-c2ccc(C)cc2)c(=O)c1Sc1ccc(C)cc1
11µM* | ? | ? | 1% | -6% | ? | Cc1ccc(NC(=O)CN2C(=O)S/C(=C\c3ccc(-c4cccc(C(=O)O)c4C)o3)C2=O)cc1

Additional records
Every second line gives: G9a block	Sfp inh	JMJD2E inh	miR-21 reporter	Lamin A splicing	ALDH1A1 inh
- Cc1cc(OCCN2CCC(Cc3ccccc3)CC2)ccc1[N+](=O)[O-]
  40µM*	-24%	nt	0%	nt	nt
- Cc1cc(OCCN2CC(C)OC(C)C2)ccc1[N+](=O)[O-] (stereo not drawn)
  13µM*	-26%	-19%	-14%	12%	?
- CC1CN(CCCOc2ccc([N+](=O)[O-])cc2)CC(C)O1 (stereo not drawn)
  10µM*	-43%	-5%	0%	9%	?
- Cc1ccc(NC(=O)CSc2nnc(-c3nnn(-c4ccc(F)cc4)c3C)o2)cc1Br
  35%[59 µM]	nt	nt	-30%	nt	nt
- Cc1ccc(N2C(=O)C3CC(c4ccccc4)=C4C5C=CC(C6C(=O)N(c7ccc(C)cc7)C(=O)C56)C4C3C2=O)cc1 (stereo not drawn)
  ?	9%	2%	-8%	-7%	1.1µM*
- Cc1cn2c(=O)cc(COC(=O)COc3ccc(F)cc3)nc2s1
  17%[59 µM]	nt	nt	-1%	-15%[46 µM]	nt
- COc1ccc2c(c1)CC(C(=O)Nc1cccc(C)c1C)CO2 (stereo not drawn)
  -11%[59 µM]	nt	nt	-5%	?	nt
- Cc1ccc2nc(SCC(=O)c3ccc4c(c3)OCO4)[nH]c2c1
  ?	45µM*	-8%	-23%	24%	?
- O=C(Cn1cc(C(=O)c2cccs2)c2ccccc21)NCc1ccc2c(c1)OCO2
  8%	?	?	2%	6%	14µM*
- O=C(CSc1nnc(SCc2cccc3ccccc23)s1)Nc1ccc(C(=O)O)cc1
  ?	19%	17%	-4%	0%[46 µM]	-14%

Every second line gives: G9a block	Sfp inh	JMJD2E inh	miR-21 reporter	Lamin A splicing	ALDH1A1 inh
- O=C(CSc1nnc(SCc2cccc3ccccc23)s1)c1ccc2c(c1)OCO2
  ?	17%	-4%	-18%	3%	0.4µM*
- CC(=O)c1c(C)[nH]c(C(=O)CSc2nc3ccc(C)cc3[nH]2)c1C
  ?	-28%	7%	4%	-17%	25µM*
- Cc1ccc2nc(SCC(=O)c3ccc4c(c3)NC(=O)CO4)[nH]c2c1
  nt	-8%	-28%	-6%	-2%[46 µM]	?
- CCC(=O)Nc1ccc(C(=O)CSc2nc3ccc(C)cc3[nH]2)cc1
  28µM*	-4%	-4%	-31%	?	-11%
- CCCc1nc2ccccc2c(C(=O)OC(C)C(=O)NCc2ccc3c(c2)OCO3)c1CC (stereo not drawn)
  -12%[59 µM]	6%	0%	22%	?	4.5µM*
- O=C(CSc1nc2ccccc2[nH]1)NCc1ccc2c(c1)OCO2
  25µM*	17%	18%	-7%	-2%	14%
- CCCc1nc2ccccc2c(C(=O)OCC(=O)NCc2ccc3c(c2)OCO3)c1CC
  -16%[59 µM]	-5%	5%	5%	?	?
- O=C(CSc1nc2ccccc2[nH]1)Nc1ccc2c(c1)OCCO2
  -17%[59 µM]	13%	-4%	-27%	?	?
- CCC(=O)Nc1ccc(C(=O)CSc2nc3ccccc3[nH]2)cc1
  ?	1%	1%	-10%	12%	14%
- O=C(CSc1nc2ccccc2[nH]1)c1ccc2c(c1)OCO2
  ?	?	-16%	-43%	5%	28µM*

Every second line gives: G9a block	Sfp inh	JMJD2E inh	miR-21 reporter	Lamin A splicing	ALDH1A1 inh
- COc1ccccc1CNS(=O)(=O)c1c(C)nc2sc(C)cn2c1=O
  1%[59 µM]	nt	nt	-1%	nt	nt
- CC(C)NC(=O)C(c1ccc(F)cc1)N(Cc1ccco1)C(=O)CCC(=O)Nc1ccccn1 (stereo not drawn)
  4%	11%	nt	3%	nt	nt
- Cc1cccc(-c2nc(CS(=O)CC(=O)NCCc3ccc(Cl)cc3)c(C)o2)c1 (stereo not drawn)
  -14%	2%	nt	8%	nt	nt
- O=C(Cn1c(Cc2ccccc2)nc2ccccc21)NCc1ccc2c(c1)OCO2
  -5%[59 µM]	9%	-9%	-5%	-12%	16µM*
